scFv variants of Ab-14 (heavy chain) against a SARS-CoV-2 spike peptide

Target: peptide PDVDLGDISGINAS, taken from heptad repeat 2 (HR2) of SARS-CoV-2 spike.

Parent scFv Ab-14: VH joined to VL by the linker GGGGSGGGGSGGGGS. Changes lie in the heavy chain CDRs alone.
VH: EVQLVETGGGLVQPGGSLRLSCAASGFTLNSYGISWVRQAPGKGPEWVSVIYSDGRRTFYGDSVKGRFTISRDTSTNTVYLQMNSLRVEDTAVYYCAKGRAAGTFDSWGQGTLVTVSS
VL: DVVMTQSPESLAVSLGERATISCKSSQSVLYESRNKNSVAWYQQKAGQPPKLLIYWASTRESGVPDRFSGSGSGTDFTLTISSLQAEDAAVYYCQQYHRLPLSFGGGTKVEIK

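Phage display of a naive human antibody library on the peptide gave the parent. The variants were designed computationally from a first round of random CDR variants and then made and measured. Several design methods are mixed in this list. AlphaSeq pools MATa yeast showing the antibodies with MATalpha yeast showing the peptide. After mating in shaken culture at 30 °C for 16 h, diploids were selected and their barcode pairs sequenced. Each replicate has its own calibration line, from reference interactions of the BCL2 family. There are six technical replicates.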

Variants are written as CDR1, CDR2 and CDR3 of the heavy chain (limits as in the source). Parent: GFTLNSYGIS, VIYSDGRRTFYGDSVK, GRAAGTFDS. The read-out is the apparent dissociation constant on a log10 scale (nM): the lower, the stronger. Replicates are averaged; those with no signal do not enter the mean. Where no diploid with the target was found in any replicate, the entry reads "nd": below detection, most likely a poor binder, though not proof of it. The authors averaged sequences with at least three values out of six and counted those with two or fewer as poor binders. Values of this round are not directly comparable with the first-round values of the same sequences. As a blank, each scFv also met three strains without target: over all heavy chain designs, 1% of these pairings were detected, typically at 2.08 and seldom below 0.84.

CDR-H1 | CDR-H2 | CDR-H3 | mean, log10 nM | replicates with signal
GFNLNEYGIS | VIYADGRRTFYSNSVK | GETAGTFDV | -0.11 | 6/6
GFTLNSYGIS | VIYSDGRRTFYHDSVK | GEAAGTFDT | 1.16 | 6/6
GFDIDEYGIS | VIYADGMRTFYTDSVK | GEQAGTFDA | 0.97 | 6/6
GFSLNSYGIS | VIYSDGRRTFYQDSVK | GEAAGTFDS | 0.71 | 6/6
GKDIDEYGIS | VIYADGRRTFVADSVK | GINGDFVLA | nd | 0/6
GFDLNEYGIS | VIYADGLRTSYKDSVK | GQLAGTFDQ | -0.14 | 6/6
GFVLNSYGIS | VIYSDGRRTFYADSVK | GKEAGTFDS | 0.37 | 6/6
GFNLDEYGIS | VIYADGMRTQYKDQVK | GNLVATNMT | nd | 0/6
GFELNEYGIS | VIYSDGRRTAYGDSVK | GRAAGTFDS | 0.03 | 6/6
GFDLNSYGNS | VIYSDGRRTFYGDSVK | GRAAGWFNS | nd | 0/6
QFTLNKYGIS | VIYSDGRRTFYSDRVK | GRAAGTFDS | 1.55 | 1/6
GPSLDEYGIS | VIYADGMRTAYTDSVK | GLFGATFVD | nd | 0/6
GFTLNSYGIS | VIYSDGKRTFYSDSVK | GRVAGTFDS | 0.27 | 6/6
GFTLNEYGIS | VIYSDGQRTFYGDSVK | GRHAGTFDS | 1.33 | 5/6
GFTLNDYGIS | VIYSDGKRTMYIDSVK | GRAAGTFDS | 0.86 | 6/6
GFTLNEYGIS | VIYSDGRRTFYGDSVK | GRHAGTFWS | 1.94 | 1/6
AFNLEDYGIS | VIYADGHRASYVESVK | GGLAGTFVL | nd | 0/6
GFSLDEYGIS | VIYADGNRQEYIDAVK | GNYGGDFIE | 0.13 | 4/6
GFEIQEFGIS | VIYADGMRTNYSENVK | GTLAGTFTT | 1.50 | 4/6
HFTLNSYGIS | VIYADGRRTFYGDSVK | GKAAGTFDS | -0.15 | 6/6
GFDLNEYGIS | VIYADGHRSFFTDTVK | GQQAGIFNV | 0.58 | 6/6
GFDLDEYGIS | VIYADGMRKAYADDVK | GENAGTFDV | -0.56 | 6/6
GFDLNEYGIS | VIYADGRRTFYSDSVK | GQLAGTFDN | -0.61 | 6/6
GFELNSYGIS | VIYSDGRRTFYIDEVK | GRTAGTFDS | 0.51 | 3/6

The remaining entries, values ahead:

mean, log10 nM | replicates with signal | CDR-H1 | CDR-H2 | CDR-H3
nd | 0/6 | GFDLGEYGIS | VIYADGHRRAYADDVK | GMHSGSVQT
1.59 | 6/6 | GFTLNEYGIS | VIYSDGRRTFYMDSVK | GRMAGTFDS
-0.55 | 6/6 | GFDLDEYGIS | VIYADGMRTFYSDSVK | GNVAGTFDL
0.94 | 6/6 | GFSLNEYGIS | VIYSDGRRTFYEDSVK | GTAAGTFDS
1.40 | 2/6 | GFGLNDYGIS | VIYSDGRRTFYHDWVK | GRTAGTFDS
nd | 0/6 | GFWLDEYGIS | VIYADGMRTAYKNSVK | GSFTYNFDV
0.93 | 4/6 | GFWLNDYGIS | VIYSDGRRTFYHDSVK | GRQAGTFDS
nd | 0/6 | GFNLNEFGIS | VIYADGHRQAYVSNVK | GHLGGHFDM
nd | 0/6 | GFELNEYGIS | VIYSDGRRTFYSDSVK | GEAAGTFDS
-0.08 | 6/6 | GFDLNEYGIS | VIYADGMRTYYSDSVK | GNNAGTFDV
0.11 | 6/6 | GFTLDSYGIS | VIYADGRRTFYSDSVK | GRQAGTFDS
nd | 0/6 | GFTLNSYGIS | VIYADGRRTFYGDSVK | GVAAGTNKS
1.12 | 6/6 | GFTLNSYGIS | VIYSDGRRTFYSDQVK | GEAAGTFDS
0.34 | 6/6 | GFSLNSYGIS | VIYSDGRRTFYGDNVK | GMQAGTFDS
0.08 | 6/6 | HFDLNSYGIS | VIYSDGRRTFYADSVK | GQTAGTFDS
1.26 | 6/6 | GFHLNSYGIS | VIYADGRRTFYGDSVK | GRAAGTFDK
0.43 | 6/6 | GFDLNEYGIS | VIYADGRRTAYADSVK | GEAAGTFDE
0.38 | 4/6 | GFDLNSYGIS | VIYSDGRRTAYGDMVK | GRAAGTFDS
nd | 0/6 | GFDLNSYGIS | VIYSDGRRTFYGDSVK | GRRAGTFDS
1.93 | 4/6 | GFTLNSYGIS | VIYSDGIRTFYIDSVK | GEAAGTFNS
-1.15 | 6/6 | GFDLDEYGVS | VIYADGMRMAYLNDVK | GQKGNVFFM
nd | 0/6 | GFTLNDYGIS | VIYSDGRRTFYGDSVK | GKAAGTFHS
nd | 0/6 | GFTLNSYGIS | VIYSDGRRTFYIDSVK | GHAAGTFDF
-0.28 | 6/6 | GFTLNSYGIS | VIYADGKRTFYGDSVK | GKAAGTFDS

The closing 7 entries, repeated:

CDR-H1,CDR-H2,CDR-H3,"mean, log10 nM",replicates with signal
GFDLNSYGIS,VIYSDGRRTAYGDMVK,GRAAGTFDS,0.38,4/6
GFDLNSYGIS,VIYSDGRRTFYGDSVK,GRRAGTFDS,nd,0/6
GFTLNSYGIS,VIYSDGIRTFYIDSVK,GEAAGTFNS,1.93,4/6
GFDLDEYGVS,VIYADGMRMAYLNDVK,GQKGNVFFM,-1.15,6/6
GFTLNDYGIS,VIYSDGRRTFYGDSVK,GKAAGTFHS,nd,0/6
GFTLNSYGIS,VIYSDGRRTFYIDSVK,GHAAGTFDF,nd,0/6
GFTLNSYGIS,VIYADGKRTFYGDSVK,GKAAGTFDS,-0.28,6/6

Source: Li et al. 2023 (doi:10.1038/s41467-023-39022-2), MIT Lincoln Laboratory and A-Alpha Bio; data file from the FLAb repository.